Experimental findings from PubChem BioAssay AID651658 (Broad Institute, 2012) are described below.

Amino acid sequences for entries named in this document (tags omitted).
UniProt Q9HCT0, whole entry: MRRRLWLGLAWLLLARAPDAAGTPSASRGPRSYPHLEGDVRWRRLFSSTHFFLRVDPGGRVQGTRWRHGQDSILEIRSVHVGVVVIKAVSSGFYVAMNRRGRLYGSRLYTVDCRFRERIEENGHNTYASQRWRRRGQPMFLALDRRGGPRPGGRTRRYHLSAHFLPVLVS

This is a selection; strong and weak results do not stand in their true shares. Some tests of the compounds listed are not included; inactive here does not mean inactive elsewhere. Activity calls are given as the source filed them.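 Rule for the calls: active = mean Tm shift, scaled 0 neutral to 100 positive control, at about 1.3% or above, every replicate too (limit read from the data); inconclusive = no clear call, values can overlap the other calls; inactive = the rest.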

The assay has as its target Fibroblast growth factor 22 (Homo sapiens) (UniProt Q9HCT0). Kind of assay: FGF22 ligand-induced thermal stabilization – biophysical, thermal shift, single point, FGF22 synaptogenesis inhibitor project, primary screen (AID 651658). Particulars: recombinant FGF22 thermal shift, SYPRO orange fluorescence; at 9.99 µM; active compounds read high; percent of sucrose octasulfate shift, DMSO zero.
For the compound `COc1cccc(C(=O)NCC2(N3CCCCC3)CCCCC2)c1`, the activity (Tm shift, normalised) is inactive: 0.114%.

For the compound `COc1ccc(Cl)cc1C(=O)NCC1(N(C)C)CCCCC1`, the activity (Tm shift, normalised) is inactive: -0.141%.

As to `O=C(NCC1(N2CCCCC2)CCCCC1)c1cccc(Cl)c1`, the activity (Tm shift, normalised) was inactive: -0.04%.

Consider `CN(C)C1(CNC(=O)c2ccc(Br)cc2)CCCCC1`, for which the activity (Tm shift, normalised) was inactive: -0.144%.

`COc1cc(C(=O)NCC2(N(C)C)CCCCC2)c([N+](=O)[O-])cc1OC`: the activity (Tm shift, normalised) is inactive: -0.324%.

On to `C=C(C)C#CC(O)(C(=O)OC1CCN(C)CC1)c1ccccc1` (configuration not stated), for which the activity (Tm shift, normalised) was active: 43%.

For `COc1ccc(Br)c(C(=O)NCC2(N3CCCCC3)CCCCC2)c1`, the activity (Tm shift, normalised) is inactive: 0.105%.

For the compound `CC(C)Oc1ccc(C(=O)NCC2(N(C)C)CCCCC2)cc1`, the activity (Tm shift, normalised) is inactive: -0.131%.

Consider `O=C(OCCN1CCCC1)C(O)(c1ccccc1)c1ccccc1`, for which the activity (Tm shift, normalised) is inactive: 0.166%.

Regarding `CCN(CC)CC(C)C(C)OC(=O)C(O)(c1ccccc1)c1ccccc1` (configuration not stated), the activity (Tm shift, normalised) was inactive: -0.071%.

With `COc1cc(SC)ccc1C(=O)NCC1(N(C)C)CCCCC1`, the activity (Tm shift, normalised) was inactive: 0.204%.

As to `Cc1ccc(C(=O)NCC2(N3CCCCC3)CCCCC2)cc1`, the activity (Tm shift, normalised) was inactive: -0.372%.

On to `O=C(NCC1(N2CCCCC2)CCCCC1)c1cc([N+](=O)[O-])ccc1Cl`, for which the activity (Tm shift, normalised) was inactive: -0.193%.

Consider `CN1[C@@H]2CC[C@H]1CC(OC(=O)C(O)(c1ccccc1)c1ccccc1)C2` (some centres not stated), for which the activity (Tm shift, normalised) is inactive: -0.083%.

In the case of `C=CCN1CCN(CCOC(=O)C(O)(c2ccccc2)c2ccccc2)CC1`, the activity (Tm shift, normalised) is inactive: 0.527%.

For the compound `O=C(NCC1(N2CCCCC2)CCCCC1)c1cc(F)c(F)cc1Cl`, the activity (Tm shift, normalised) is inactive: -0.053%.

As to `COc1ccc(C(=O)NCC2(N(C)C)CCCCC2)cc1`, the activity (Tm shift, normalised) is inactive: -0.144%.

Take `Cc1cc(C(=O)NCC2(N3CCCCC3)CCCCC2)ccc1[N+](=O)[O-]`: the activity (Tm shift, normalised) is inactive: -0.442%.

As to `O=C(NCC1(N2CCCCC2)CCCCC1)c1cccc(Br)c1`, the activity (Tm shift, normalised) was inactive: -0.026%.

Turning to `Cc1ccccc1C(=O)NCC1(N2CCCCC2)CCCCC1`, the activity (Tm shift, normalised) is inactive: 0.093%.

As to `CN(C)C1CCCC1OC(=O)C(O)(c1ccccc1)c1ccccc1` (configuration not stated), the activity (Tm shift, normalised) is inactive: -0.264%.

Consider `CN(C)c1ccc(C(=O)NCC2(N(C)C)CCCCC2)cc1`, for which the activity (Tm shift, normalised) is inactive: 0.168%.
